Test [1] deals with M. Tuberculosis Erdman or H37Rv vs VERO or HepG2 cells. As to the kind of experiment: Selectivity Index (mammalian cell IC50 / bacterial MIC).
In test [2] the test system is mitochondrial protein synthesis (COX-1/SDH-A ratio) in H9C2 rat heart myoblast cells. As to the kind of experiment: Mitochondrial protein synthesis inhibition (MitoBiogenesis in-cell ELISA, COX-1/SDH-A). Conditions: H9c2, 120 h, read-out: MPS IC50. It is filed as cell-based. A general note: ELISA stands for enzyme-linked immunosorbent assay.

Three compounds from patent US20230348447A1, “OXAZOLIDINONE COMPOUNDS, LIPOSOME COMPOSITIONS COMPRISING OXAZOLIDINONE COMPOUNDS AND METHOD OF USE THEREOF” (priority 2020, published 2023) can be followed below.

The structures appear in SMILES notation. Converted amounts (≈) assume the structure as drawn.

For the compound `CC(=O)NC[C@H]1CN(c2ccc(-c3ccc(-c4nnn(CCN(C)C)n4)nc3)c(F)c2)C(=O)O1` [AKG-38], in test [1], the “Selectivity Index (SI) Erd/HepG2” value is recorded as 1616.7 and the “Selectivity Index (SI) Erd/VERO” value is on record as 6583.3. In the case of `CN(C)CCn1nnc(-c2ccc(-c3ccc(N4C[C@H](CO)OC4=O)cc3F)cn2)n1` [AKG-16], in test [1], the “Selectivity Index (SI) Erd/HepG2” value is recorded as 364.0 and the “Selectivity Index (SI) Erd/VERO” value was 388.0. As for `CC(=O)NC[C@H]1CN(c2ccc(N3CCOCC3)c(F)c2)C(=O)O1` [Linezolid], in test [2], the IC50 (commonly the point on the concentration scale where inhibition reaches its midpoint) was 2.16 µg/mL (≈ 6.39 µM).
